Results reported in US11510886B2, “Metformin amino acid compounds and methods of using the same” (Laboratorios Silancs S.A. DE C.V., priority 2016, dated 2022).
Where two headings read alike, the source gives them in different places.

Experiments:
[1] = terms of European Pharmacopeia 7.0 section 5.11
[2] = STZ-diabetic male rats, mean ± SD
[3] = diabetic rats, 14 days daily oral
[4] = before first TI/RI administration

Molecule | Physical form (hygroscopicity) [1] | Physical form (hygroscopicity) ([1]; listed as 18. LYSINE) | Absolute body weight, Day −2 (distribution of groups) [2, 4] | Absolute body weight, Day −3 (before STZ administration) ([2]; baseline before STZ and before first TI/RI administration) | Absolute body weight, Day −1 [2, 4] | mortality [3]
metformin lysinate | deliquescent compound | Deliquescent |  |  |  | 
CN(C)C(=N)NC(=N)N.C[C@H](N)C(=O)O [Metformin alaninate, metformin alaninate] |  |  | 219.20 ± 4.18 g |  |  | 
diphenformin aspartate |  |  | 212.77 ± 8.22 g | 219.17 ± 19.71 g | 207.03 ± 1.61 g | sacrificed for humane reasons
